The values that follow come from patent US11661410B2 (GLOBAL BLOOD THERAPEUTICS, INC., priority 2017, dated 2023).

The chains behind the UniProt entries cited, without tags or fusion partners. Where a name states a change or a piece, a line headed by the entry shows the natural chain unless it says otherwise.
UniProt Q96KQ7: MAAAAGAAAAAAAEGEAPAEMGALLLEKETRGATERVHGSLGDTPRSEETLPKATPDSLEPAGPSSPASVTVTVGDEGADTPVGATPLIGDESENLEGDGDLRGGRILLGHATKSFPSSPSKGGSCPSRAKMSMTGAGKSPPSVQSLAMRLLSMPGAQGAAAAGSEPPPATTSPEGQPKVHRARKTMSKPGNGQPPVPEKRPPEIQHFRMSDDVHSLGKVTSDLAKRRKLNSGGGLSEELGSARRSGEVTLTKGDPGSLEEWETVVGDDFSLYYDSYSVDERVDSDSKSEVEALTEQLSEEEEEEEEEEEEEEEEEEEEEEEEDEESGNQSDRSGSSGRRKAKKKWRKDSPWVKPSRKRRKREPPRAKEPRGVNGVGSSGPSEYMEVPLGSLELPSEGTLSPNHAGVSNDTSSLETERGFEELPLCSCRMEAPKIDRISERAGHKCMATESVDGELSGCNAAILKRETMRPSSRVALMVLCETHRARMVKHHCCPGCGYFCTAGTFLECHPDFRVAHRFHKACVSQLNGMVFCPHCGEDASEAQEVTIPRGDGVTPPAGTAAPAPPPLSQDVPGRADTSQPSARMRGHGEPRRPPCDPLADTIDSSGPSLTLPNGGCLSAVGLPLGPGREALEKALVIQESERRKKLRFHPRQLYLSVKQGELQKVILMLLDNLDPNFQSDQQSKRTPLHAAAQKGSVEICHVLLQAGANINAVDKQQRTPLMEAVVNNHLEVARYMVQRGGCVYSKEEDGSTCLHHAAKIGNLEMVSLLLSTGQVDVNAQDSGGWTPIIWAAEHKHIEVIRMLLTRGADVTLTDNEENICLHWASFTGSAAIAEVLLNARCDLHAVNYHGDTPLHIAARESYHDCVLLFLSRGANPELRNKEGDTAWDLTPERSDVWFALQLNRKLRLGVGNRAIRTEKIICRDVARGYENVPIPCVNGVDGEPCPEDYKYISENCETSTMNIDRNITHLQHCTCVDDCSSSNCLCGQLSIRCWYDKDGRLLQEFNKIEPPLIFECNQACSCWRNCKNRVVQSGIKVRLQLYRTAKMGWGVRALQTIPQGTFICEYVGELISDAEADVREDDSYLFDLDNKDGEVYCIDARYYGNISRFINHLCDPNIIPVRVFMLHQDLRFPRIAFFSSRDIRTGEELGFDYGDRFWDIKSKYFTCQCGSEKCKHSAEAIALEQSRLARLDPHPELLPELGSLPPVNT
UniProt P28223, whole entry, looked up: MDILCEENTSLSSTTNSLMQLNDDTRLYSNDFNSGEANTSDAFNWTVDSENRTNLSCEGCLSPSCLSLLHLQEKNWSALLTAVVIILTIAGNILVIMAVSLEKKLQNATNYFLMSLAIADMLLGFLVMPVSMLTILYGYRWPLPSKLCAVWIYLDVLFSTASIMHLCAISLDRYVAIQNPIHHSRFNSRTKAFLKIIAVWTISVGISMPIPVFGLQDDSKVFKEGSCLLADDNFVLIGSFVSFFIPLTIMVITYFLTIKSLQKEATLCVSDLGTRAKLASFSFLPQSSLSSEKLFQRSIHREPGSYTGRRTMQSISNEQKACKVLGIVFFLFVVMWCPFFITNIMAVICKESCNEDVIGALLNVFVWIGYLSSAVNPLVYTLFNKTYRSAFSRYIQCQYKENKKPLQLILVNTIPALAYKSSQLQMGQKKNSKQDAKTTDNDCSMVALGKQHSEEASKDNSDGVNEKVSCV
UniProt P23975, whole entry, looked up: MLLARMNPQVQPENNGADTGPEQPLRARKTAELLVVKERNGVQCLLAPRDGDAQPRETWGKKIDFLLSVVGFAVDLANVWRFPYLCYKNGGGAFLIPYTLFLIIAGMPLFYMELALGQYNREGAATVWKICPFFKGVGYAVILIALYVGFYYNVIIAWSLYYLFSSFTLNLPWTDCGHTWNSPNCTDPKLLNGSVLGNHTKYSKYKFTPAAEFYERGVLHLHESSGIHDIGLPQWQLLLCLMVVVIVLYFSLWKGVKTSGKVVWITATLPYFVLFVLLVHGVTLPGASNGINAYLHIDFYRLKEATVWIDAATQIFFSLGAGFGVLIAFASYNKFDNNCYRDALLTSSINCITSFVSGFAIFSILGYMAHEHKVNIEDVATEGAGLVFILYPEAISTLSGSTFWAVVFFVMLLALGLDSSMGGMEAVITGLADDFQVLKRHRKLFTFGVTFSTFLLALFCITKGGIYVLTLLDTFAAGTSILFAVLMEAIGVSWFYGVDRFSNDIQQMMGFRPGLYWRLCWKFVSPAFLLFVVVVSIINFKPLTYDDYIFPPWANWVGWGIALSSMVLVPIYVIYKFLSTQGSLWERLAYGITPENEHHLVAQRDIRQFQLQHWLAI

One assay addresses G9a (Homo sapiens (Human), UniProt Q96KQ7). In words: G9a AlphaLISA enzymatic activity assay. The class given is biochemical. Particulars: negative log of the IC50 value in molar. On the technique in general: In Alpha technology, singlet oxygen from a donor bead excites a nearby acceptor bead.
The target of another assay is serotonin 5HT2A receptor (Homo sapiens (Human), UniProt P28223). In words: Safety pharmacological profiling: serotonin 5HT2A receptor ligand binding. Particulars: compound at 10 μM, in duplicate; ligand binding to cell membranes.
Assay [1] deals with norepinephrine transporter (NET) (Homo sapiens (Human), UniProt P23975). In words: Safety pharmacological profiling: norepinephrine transporter inhibition. The assay is classed as binding. Particulars: compound at 10 μM, in duplicate; membranes from cells expressing the transporter.

In turn, `COc1cc2nc3c(c(N(C(N)=O)C4CCNCC4)c2cc1OC)CCC3` came in with a pIC50 against G9a of 6.45.

For `COc1cc2nc3c(c(NC4CCN(C(C)C)CC4)c2cc1OC)CCC3`, the “Serotonin 5HT2A percent inhibition” value on serotonin 5HT2A receptor is 21%. Moreover, the “Norepinephrine Transporter (NET) percent inhibition” value in assay [1] worked out at 38%.

Broadly, the pIC50 is the negative decadic logarithm of the IC50, by convention in mol/L. Low values mean a large IC50, high ones a small IC50.
